{"source": "patent US11963980B2", "about": "“Activated CD26-high immune cells and CD26-negative immune cells and uses thereof” (MUSC FOUNDATION FOR RESEARCH DEVELOPMENT, priority 2016, dated 2024)", "test_system": "CD4^+CD26^high cells", "conditions": "2.5 nM Alogliptin, N=4", "note": "Entries after “also recorded” stand apart in the source; their conditions may differ."}
{"smiles": "Cn1c(=O)cc(N2CCC[C@@H](N)C2)n(Cc2ccccc2C#N)c1=O", "note": "[Alogliptin]", "values": [{"measurement": "Granzyme B (cytotoxin) secretion of CD4+CD26high cells", "result": "less Granzyme B and less"}, {"measurement": "function / cytokine secretion of CD4+CD26high cells", "result": "reduced; also recorded: less cytokines"}]}
